From US12559487B2, “Crosslinked optically active secondary amine derivative” (Sumitomo Pharma Co., Ltd., priority 2019, dated 2026)

Tested on: MV4; 11 cells
Assay: Test 1: Test for evaluating the inhibition of cell proliferation
Format: cell-based
Details: for IC50: cultured for 7 days, PrestoBlue cell viability
Experimental: MV4; 11 cells were obtained from American Type Culture Collection (ATCC). The cells were cultured at 37° C. in the presence of 5% CO2 in RPMI 1640 medium containing 10% fetal bovine serum and 1% penicillin/streptomycin.
The cells were plated to a 96-well plate in 2000 cells/well, each test compound was added thereto to adjust the final concentration of DMSO to 0.1% of DMSO, and the cells were cultured for 7 days. After the cultivation, the cell viability was calculated with PrestoBlue™ Cell Viability Reagent (Invitrogen, A13261).

CC(C)N(C(=O)c1cc(F)ccc1-n1cc(C2CC3CCC(C2)N3C(=O)[C@H]2NC3CCC2CC3)c2ccncc21)C(C)C (stereo partly drawn) [Example 22, 2-(3-{8-[(3S)-2-azabicyclo[2.2.2]octane-3-carbonyl]-8-azabicyclo[3.2.1]octan-3-yl}-1H-pyrrolo[2,3-c]pyridin-1-yl)-5-fluoro-N,N-di(propan-2-yl)benzamide]
IC50: 64 nM
cell proliferation inhibition activity (summary in words): potent cell proliferation inhibition activity

CC(C)N(C(=O)c1cc(F)ccc1-n1cc(C2CCCN(C(=O)[C@H]3NC4CCC3CC4)CCC2)c2ccncc21)C(C)C [Example 17, 2-(3-{1-[(3S)-2-azabicyclo[2.2.2]octane-3-carbonyl]azocan-5-yl}-1H-pyrrolo[2,3-c]pyridin-1-yl)-5-fluoro-N,N-di(propan-2-yl)benzamide]
IC50: 830 nM

CC(C)N(C)C(=O)c1cc(F)ccc1-n1cc(C2CCCN(C(=O)[C@H]3NC4CCC3CC4)CCC2)c2ccncc21 [Example 15, 2-(3-{1-[(3S)-2-azabicyclo[2.2.2]octane-3-carbonyl]azocan-5-yl}-1H-pyrrolo[2,3-c]pyridin-1-yl)-5-fluoro-N-methyl-N-(propan-2-yl)benzamide]
IC50: 420 nM
